# Screening data: PubChem BioAssay, National Center for Advancing Translational Sciences (NCATS)
# GLP-1R inv ag: acts as inverse agonist at human GLP-1 receptor. P43220. HEK293 GLP-1R CRE-luciferase, luminescence, 24 h; GLP-1R form is constitutively active. Potency, µM (top dose mostly 38.3 µM), inactives show top-dose activity change, negative = inhibition, usual class: inhibitors. 1.6% of 410,000 active; also: potency is read from the fitted curve at half-maximal effect; % is scaled to controls: 0 for no effect and ±100 for the full control effect; nearly all actives have a fitted effect of over 55% in size
#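 Using stably transfected HEK293 (constitutively active GLP-1R, cAMP-luciferase reporter), compounds were incubated 24 hr and luciferase measured by luminescence.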
# Pin1 inhibitor: human Pin1 inhibition; Q13526; Pin1 FP peptide displacement, HiFluor488, 10 min; Potency, µM (series often up to 115 µM), for inactives: top-dose activity, negative = inhibition, most hits filed as inhibitors; 0.009% of 390,000 active; AID 504891; active = well fitted inhibition curve with a large enough effect in the polarisation, with a control signal flat, not every such curve was filed as active; inconclusive = small, poorly fitted or top-dose-only effect, or effect the other way, or a change in a side signal; inactive = no such curve, though single readings can be large or run the other way; the % refers to the polarisation; also: potency is read from the fitted curve at half-maximal effect; % is scaled to controls: 0 for no effect and ±100 for the full control effect
# PTHR1 agonist: PTHR1 (human) receptor agonism; Q03431; HEK293 GP2 PTHR1 cells, GloSensor cAMP luminescence, 1 h; Potency, µM (top dose mostly 115 µM), for the others: at the top dose activation, usual class: activators; 0.075% of 410,000 active; AID 743266; also: potency is read from the fitted curve at half-maximal effect; nearly all actives have a fitted effect of over 55% in size
#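 HEK-293-derived GP2 cells expressing PTHR1 and a GloSensor cAMP reporter, 3,000/well, plated overnight, given luciferin plus IBMX (each 0.5 mM as added) for 1 h at 37 °C, then compound for 1 h at 37 °C. Luminescence was read after 15 min at room temperature.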
# GLP1R cytotox: cytotoxicity in counter-screen for GLP-1R inverse agonists. HEK293 cAMP-luciferase reporter cells, luminescence, 24 h. Potency, µM (doses to about 38.3 µM), for inactives: at the highest dose activity change, negative = inhibition, hits mostly inhibitors. 0.13% of 410,000 active. AID 624418;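 also: loss of luciferase light is scored as toxicity; potency is read from the fitted curve at half-maximal effect; % is scaled to controls: 0 for no effect and ±100 for the full control effect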
#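 To flag toxic compounds, the library was rerun on cells for 24 hr at 37 deg C and 5% CO2. Viability-linked luminescence was captured 12 min after adding luciferase detection reagent.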
# miR-21 reporter: miR-21 reporter, rising signal; HeLa miR-21 FLuc reporter, luciferase, 48 h; Potency, µM (highest dose often 38.3 µM), for the others: top-dose reporter change, positive = more light; 340,000 tested, under 10 active; AID 2288; active = well fitted rising curve with a large enough effect; inconclusive = small, poorly fitted or top-dose-only effect; inactive = no such curve, though single readings can be large or run the other way;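 further: % of control where 0% means no effect; miR-21 action dims this reporter so a rising signal means less miR-21 action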
#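 Luminescence from a firefly luciferase reporter carrying a miR-21 binding site downstream, stably expressed under a CMV promoter in HeLa cells that make miR-21 endogenously, reports miRNA modulation after 48 h compound exposure up to approximately 40uM final.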
# GLP1R ag: activates the human GLP-1 receptor | HEK293 GLP-1R CRE-luciferase, luminescence, 4-6 h; cells express a hypersensitive GLP-1R form | Potency, µM (titrated, usually from 45.6 µM), without a hit: top-dose activation, actives largely listed as activators | 0.007% of 380,000 active | AID 624172; also: potency is read from the fitted curve at half-maximal effect; % of control where 0% means no effect
# * = called active by the depositor; i = inactive; ? = inconclusive; nt = not tested or not shown. Only some compounds are listed: those with a hit (about 1.7% of all), similar ones and a draw of the others. Unless noted, calls follow the shape of the dose curve; as a rule, active = well fitted curve in the direction sought with a large enough effect; inconclusive = small, poorly fitted or top-dose-only effect, or another doubt; inactive = no such curve, though single readings can be large; an effect the other way counts as inactive or inconclusive.
1) O=c1cc(-c2ccccc2Cl)oc2c(NS(=O)(=O)c3cc(Cl)cc(Cl)c3O)ccc(O)c12
2) O=C(c1ccccc1)N1CCN(c2nc(-c3cccs3)nc3ccccc23)CC1
3) O=C(Nc1cccc2c1CCCC2)c1cc([N+](=O)[O-])ccc1Cl
4) CCCNC(=O)C(Cc1ccccc1C)NC(=O)c1ccc(C#N)cc1 (stereo not given)
5) CCCNC(=O)C(Cc1ccccc1F)NC(=O)c1ccc(C#N)cc1 (stereo not given)
6) COc1ccc(CN2CCN(C(c3ccc(F)cc3)c3ccc(F)cc3)CC2)c(OC)c1OC
7) COc1ccc(CN2CCN(c3ccc(F)cc3)CC2)c(OC)c1OC
8) Cc1oc(-c2ccc(C(=O)Nc3cccc(C(F)(F)F)c3)cc2)nc1CSc1ccccc1

screen / no.	1	2	3	4	5	6	7	8
GLP-1R inv ag	4µM*	nt	3.2µM*	20%	14%	10µM*	-14%	2.2µM*
Pin1 inhibitor	22µM*	9%	-2%	-15%	0%	0%	1%	-1%
PTHR1 agonist	-48%	nt	i	-23%	23%	-20%	-15%	-90%
GLP1R cytotox	?	nt	?	2.5µM*	0%	?	-2%	-22%
miR-21 reporter	?	nt	?	nt	nt	nt	1%	?
GLP1R ag	3%	nt	-7%	5%	-5%	-5%	0%	nt

9) COc1ccccc1CCNC(=O)c1ccc(-c2nc(CSc3ccc(C)cc3)c(C)o2)cc1
10) CCOc1ccccc1CNC(=O)c1ccc(-c2nc(CSc3ccc(C)cc3)c(C)o2)cc1
11) CC1(C)N=C(N)N=C(N)N1c1ccc(Cl)cc1
12) CC(C)(C)NC(=O)NC(=O)CN1CCN(Cc2ccccc2)CC1
13) COc1ccc(CNC(=O)CN2CCN(C(c3ccccc3)c3ccccc3)CC2)cc1
14) CC(C)(C)NC(=O)NC(=O)CN1CCN(C(c2ccccc2)c2ccccc2)CC1
15) O=C(CN1CCN(C(c2ccccc2)c2ccccc2)CC1)N1N=CCC1c1ccccc1 (stereo not given)
16) N=c1c2c(ncn1-c1ccccc1)Oc1ccc3ccccc3c1C2c1ccc2c(c1)OCCO2 (stereo not given)

screen / no.	9	10	11	12	13	14	15	16
GLP-1R inv ag	10µM*	4%	nt	-14%	13µM*	5µM*	11µM*	nt
Pin1 inhibitor	1%	10%	nt	3%	-3%	-9%	-1%	114%
PTHR1 agonist	-7%	i	nt	-40%	-2%	-34%	i	nt
GLP1R cytotox	11%	8%	nt	-5%	-14%	16%	-21%	nt
miR-21 reporter	5%	-1%	nt	0%	15%	-2%	0%	nt
GLP1R ag	nt	nt	-1%	-4%	17%	-1%	9%	nt

# Part of the list above, set out differently.
no.	mol	GLP-1R inv ag	Pin1 inhibitor	PTHR1 agonist	GLP1R cytotox	miR-21 reporter	GLP1R ag
13	COc1ccc(CNC(=O)CN2CCN(C(c3ccccc3)c3ccccc3)CC2)cc1	13µM*	-3%	-2%	-14%	15%	17%
14	CC(C)(C)NC(=O)NC(=O)CN1CCN(C(c2ccccc2)c2ccccc2)CC1	5µM*	-9%	-34%	16%	-2%	-1%

# (more compounds)
17) C/C=C/C(=O)[C@@H](C)[C@@H](/C=C/C[Si](C)(C)C)C(C)C
18) C=C(C1=CCN(S(=O)(=O)C(C)(C)C)[C@@H]1CCO)c1ccccc1
19) C=C(CCO)C1=CCN(S(=O)(=O)C(C)(C)C)[C@H]1CCO
20) O=C1CCc2cc(S(=O)(=O)Nc3cccc(C(F)(F)F)c3)ccc2N1
21) CC(NC(=O)c1ccc2nc(Cc3ccccc3)oc2c1)c1ccccc1 (stereo not given)
22) COc1cc(CNC(=O)c2ccc3nc(CCc4ccccc4)oc3c2)cc(OC)c1OC
23) CC(CNC(=O)c1ccc2nc(Cc3ccccc3)oc2c1)c1ccccc1 (stereo not given)
24) Cc1cc(C)cc(NC(=O)C(=O)NCC(c2ccc3c(c2)OCO3)N2CCN(C)CC2)c1 (stereo not given)

screen / no.	17	18	19	20	21	22	23	24
GLP-1R inv ag	nt	7.9µM*	9%	nt	-28%	11µM*	11µM*	-8%
Pin1 inhibitor	1%	1%	-1%	3%	4%	3%	5%	-6%
PTHR1 agonist	nt	-14%	-11%	nt	-22%	-3%	-48%	24%
GLP1R cytotox	nt	2%	-9%	nt	-4%	2%	-13%	-24%
miR-21 reporter	nt	nt	nt	nt	-2%	15%	1%	-20%
GLP1R ag	nt	-1%	-5%	nt	nt	nt	nt	nt

# Compound profiles (already shown). Order of screens: GLP-1R inv ag	Pin1 inhibitor	PTHR1 agonist	GLP1R cytotox	miR-21 reporter	GLP1R ag
# O=C(c1ccccc1)N1CCN(c2nc(-c3cccs3)nc3ccccc23)CC1 is listed with nt	9%	nt	nt	nt	nt
# CCOc1ccccc1CNC(=O)c1ccc(-c2nc(CSc3ccc(C)cc3)c(C)o2)cc1 is listed with 4%	10%	i	8%	-1%	nt

# Further records.
25) COc1ccc2c(=O)n3nc(Nc4ccc5c(c4)CCC5)sc3nc2c1
26) COc1ccccc1-[n+]1c(C)cc(/C=C2\Sc3ccccc3N2C)cc1C
27) Cc1cccc(N2CCN(C(=S)c3ccc4c(c3)OCO4)CC2)c1
28) S=C(c1ccc2c(c1)OCO2)N1CCN(c2cccc(Cl)c2)CC1
29) Cc1cccc2sc(N(CCCN(C)C)C(=O)CN3C(=O)c4ccccc4C3=O)nc12
30) Cc1cccc2sc(N(CCCN(C)C)C(=O)CCc3ccccc3)nc12
31) O=C(O)COc1nn(Cc2ccccc2)c2ccccc12
32) CCNC(=O)Cc1ccc(NC(=O)N2CCCCc3ccccc32)cc1

screen / no.	25	26	27	28	29	30	31	32
GLP-1R inv ag	nt	2.5µM*	11µM*	?	16%	2.8µM*	nt	?
Pin1 inhibitor	-4%	?	-6%	2%	-6%	3%	nt	-2%
PTHR1 agonist	nt	-50%	-15%	i	6%	i	nt	i
GLP1R cytotox	nt	-11%	?	?	?	?	nt	7%
miR-21 reporter	nt	?	nt	nt	-1%	?	nt	1%
GLP1R ag	nt	-6%	8%	12%	11%	-13%	0%	nt

33) O=C(Cc1ccc(NC(=O)N2CCCCc3ccccc32)cc1)Nc1ccccc1Br
34) COC(=O)c1ccc(CSc2ccccc2NC(=S)Nc2cccc(SC)c2)o1
35) CC(C)(CNC(=O)/C=C/c1ccc(F)cc1)CNC(=O)/C=C/c1ccc(F)cc1
36) CCCCCOC(=O)Nc1nc(=O)n(C2O[C@H](C)[C@@H](O)[C@@H]2O)cc1F (stereo not given in full)
37) Cc1csc2nc(-c3cccc(NC(=O)c4cccc(F)c4)c3)cn12
38) O=C(C1CCN(Cc2cc(Cl)ccc2O)CC1)N1CCN(Cc2ccccc2)CC1
39) O=C(C1CCN(Cc2ccccc2O)CC1)N1CCN(Cc2ccc3c(c2)OCO3)CC1
40) COc1ccc(OCC(=O)Nc2c(C(=O)N(CCN(C)C)Cc3ccco3)oc3ccccc23)cc1

screen / no.	33	34	35	36	37	38	39	40
GLP-1R inv ag	3.2µM*	13µM*	6.3µM*	nt	?	7.1µM*	?	7.9µM*
Pin1 inhibitor	16%	nt	11%	nt	8%	-8%	-9%	8%
PTHR1 agonist	5%	-31%	-16%	nt	-35%	-64%	i	?
GLP1R cytotox	-16%	-17%	-2%	nt	-11%	-2%	14%	10%
miR-21 reporter	12%	nt	-31%	nt	6%	14%	3%	1%
GLP1R ag	nt	14%	10%	0%	-1%	-8%	-11%	5%

41) COc1ccccc1C(=O)Nc1c(C(=O)N(CCN(C)C)Cc2ccco2)oc2ccccc12
42) CN(Cc1ccccc1)C(=O)CN1CCN(S(=O)(=O)c2ccc(Cl)c(Cl)c2)CC1
43) Cc1cc(S(=O)(=O)N2CCN(CC(=O)N(C)Cc3ccccc3)CC2)ccc1Br
44) Cc1cc(OCC(=O)N(C)Cc2ccccc2)ccc1Br
45) Cc1cc(OCC(=O)N(C)Cc2ccccc2)ccc1Cl

screen / no.	41	42	43	44	45
GLP-1R inv ag	?	?	8.9µM*	10µM*	?
Pin1 inhibitor	0%	-11%	3%	0%	-2%
PTHR1 agonist	i	-54%	i	i	-21%
GLP1R cytotox	?	-1%	1%	4%	9%
miR-21 reporter	?	nt	nt	-49%	-53%
GLP1R ag	22%	11%	5%	3%	3%
